Source: patent US20100093655A1 (priority 2007, published 2010)

Test system: lymphocytes of a healthy individual
Details: presence or absence of riluzole (FIG. 4B)

## Nc1nc2ccc(OC(F)(F)F)cc2s1 [riluzole, 6-(trifluoromethoxy)-2-aminobenzothiazole]
  effect on mortality: do not show a specific effect on mortality
